This is a selection; strong and weak results do not stand in their true shares. The source made the active and inactive calls.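 How the source made its calls: active means corrected activity change at or below -50% at 5 µM; inactive means the rest.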
Assay: KKLEB cell viability reduction – uHTS, fluorescence assay plates, cytotoxicity control for CF NF-kB inhibitor project, primary screen (AID 602141)
Details: KKLEB CF airway cells viability, ATPlite luminescence, overnight; at 5 µM; stronger effect = lower value; cells stimulated with P. aeruginosa culture filtrate

| SMILES | activity change (cytotoxicity) |
| --- | --- |
| Cc1cc(SC(NC(=O)c2ccc(F)cc2)C(Cl)(Cl)Cl)ncn1 (stereo unspecified) | inactive: -4.6% |

— PubChem BioAssay AID602141 (Sanford-Burnham Center for Chemical Genomics, 2011)
